Assay [1] is described as follows: qHTS assay to identify small molecule antagonists of the glucocorticoid receptor (GR) signaling pathway - cell viability counter screen (AID 720693). Further: nearly all actives have a fitted effect of over 55% in size. Particulars: GR-bla HeLa viability, CellTiter-Glo luminescence, 18 h, with 5 nM dexamethasone present; at 58.5 µM (top of the series). For orientation: Quantitative high-throughput screening tests each substance at several concentrations.

The chains behind the UniProt entries cited, without tags or fusion partners.
UniProt P10275, whole entry: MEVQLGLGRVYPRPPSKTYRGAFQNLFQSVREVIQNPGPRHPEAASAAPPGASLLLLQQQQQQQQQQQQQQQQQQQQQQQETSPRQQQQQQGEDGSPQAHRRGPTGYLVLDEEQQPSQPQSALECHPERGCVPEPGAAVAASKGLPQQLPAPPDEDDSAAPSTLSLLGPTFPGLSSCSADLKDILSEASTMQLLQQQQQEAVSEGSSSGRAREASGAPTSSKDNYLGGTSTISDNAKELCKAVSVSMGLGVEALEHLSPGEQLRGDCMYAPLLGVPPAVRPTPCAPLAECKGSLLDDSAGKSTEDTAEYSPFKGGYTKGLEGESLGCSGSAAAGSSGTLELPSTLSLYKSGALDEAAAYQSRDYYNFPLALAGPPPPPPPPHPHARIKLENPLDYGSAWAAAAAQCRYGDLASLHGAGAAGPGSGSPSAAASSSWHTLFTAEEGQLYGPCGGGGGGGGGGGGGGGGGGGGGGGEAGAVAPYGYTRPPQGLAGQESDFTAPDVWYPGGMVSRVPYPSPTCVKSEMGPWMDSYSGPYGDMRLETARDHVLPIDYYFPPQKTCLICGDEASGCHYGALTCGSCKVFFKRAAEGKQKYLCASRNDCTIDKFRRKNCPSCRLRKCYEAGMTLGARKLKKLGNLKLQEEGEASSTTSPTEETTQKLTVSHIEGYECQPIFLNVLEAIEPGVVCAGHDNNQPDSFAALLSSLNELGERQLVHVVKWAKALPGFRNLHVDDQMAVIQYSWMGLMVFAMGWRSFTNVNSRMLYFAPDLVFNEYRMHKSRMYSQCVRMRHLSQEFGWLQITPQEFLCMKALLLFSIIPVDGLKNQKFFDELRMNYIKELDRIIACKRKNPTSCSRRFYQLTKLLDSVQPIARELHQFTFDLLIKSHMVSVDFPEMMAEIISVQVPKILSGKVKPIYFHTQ
UniProt P03372, whole entry: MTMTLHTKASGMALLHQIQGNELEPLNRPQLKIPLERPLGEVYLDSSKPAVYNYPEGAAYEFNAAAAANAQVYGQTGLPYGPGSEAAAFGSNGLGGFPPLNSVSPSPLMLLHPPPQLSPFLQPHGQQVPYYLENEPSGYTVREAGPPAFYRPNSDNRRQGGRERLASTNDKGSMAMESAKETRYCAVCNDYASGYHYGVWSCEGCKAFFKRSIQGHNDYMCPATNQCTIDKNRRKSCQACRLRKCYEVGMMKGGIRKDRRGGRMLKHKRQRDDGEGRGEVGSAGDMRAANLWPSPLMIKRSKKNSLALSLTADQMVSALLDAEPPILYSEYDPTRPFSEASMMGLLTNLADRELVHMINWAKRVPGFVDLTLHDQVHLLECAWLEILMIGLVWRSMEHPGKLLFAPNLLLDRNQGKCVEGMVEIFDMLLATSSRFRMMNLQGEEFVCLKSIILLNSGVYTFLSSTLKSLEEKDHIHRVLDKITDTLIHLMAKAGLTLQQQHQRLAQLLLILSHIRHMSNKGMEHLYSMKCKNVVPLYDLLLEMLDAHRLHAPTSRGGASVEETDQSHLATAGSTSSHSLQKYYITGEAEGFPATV
UniProt P11511, whole entry: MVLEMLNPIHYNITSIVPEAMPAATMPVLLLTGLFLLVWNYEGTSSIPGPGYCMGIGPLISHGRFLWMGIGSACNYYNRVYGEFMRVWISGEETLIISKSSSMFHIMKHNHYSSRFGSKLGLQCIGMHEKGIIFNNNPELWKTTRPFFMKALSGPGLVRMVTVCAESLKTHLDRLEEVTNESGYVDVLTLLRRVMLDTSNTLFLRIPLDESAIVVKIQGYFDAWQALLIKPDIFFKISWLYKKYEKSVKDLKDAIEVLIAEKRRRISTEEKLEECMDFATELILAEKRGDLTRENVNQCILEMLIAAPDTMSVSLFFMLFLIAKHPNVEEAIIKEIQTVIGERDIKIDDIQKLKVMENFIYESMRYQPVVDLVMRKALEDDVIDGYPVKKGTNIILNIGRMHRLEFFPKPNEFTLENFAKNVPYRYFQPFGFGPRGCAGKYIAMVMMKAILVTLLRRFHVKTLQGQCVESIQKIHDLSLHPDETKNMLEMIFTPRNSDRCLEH
UniProt P35869, whole entry: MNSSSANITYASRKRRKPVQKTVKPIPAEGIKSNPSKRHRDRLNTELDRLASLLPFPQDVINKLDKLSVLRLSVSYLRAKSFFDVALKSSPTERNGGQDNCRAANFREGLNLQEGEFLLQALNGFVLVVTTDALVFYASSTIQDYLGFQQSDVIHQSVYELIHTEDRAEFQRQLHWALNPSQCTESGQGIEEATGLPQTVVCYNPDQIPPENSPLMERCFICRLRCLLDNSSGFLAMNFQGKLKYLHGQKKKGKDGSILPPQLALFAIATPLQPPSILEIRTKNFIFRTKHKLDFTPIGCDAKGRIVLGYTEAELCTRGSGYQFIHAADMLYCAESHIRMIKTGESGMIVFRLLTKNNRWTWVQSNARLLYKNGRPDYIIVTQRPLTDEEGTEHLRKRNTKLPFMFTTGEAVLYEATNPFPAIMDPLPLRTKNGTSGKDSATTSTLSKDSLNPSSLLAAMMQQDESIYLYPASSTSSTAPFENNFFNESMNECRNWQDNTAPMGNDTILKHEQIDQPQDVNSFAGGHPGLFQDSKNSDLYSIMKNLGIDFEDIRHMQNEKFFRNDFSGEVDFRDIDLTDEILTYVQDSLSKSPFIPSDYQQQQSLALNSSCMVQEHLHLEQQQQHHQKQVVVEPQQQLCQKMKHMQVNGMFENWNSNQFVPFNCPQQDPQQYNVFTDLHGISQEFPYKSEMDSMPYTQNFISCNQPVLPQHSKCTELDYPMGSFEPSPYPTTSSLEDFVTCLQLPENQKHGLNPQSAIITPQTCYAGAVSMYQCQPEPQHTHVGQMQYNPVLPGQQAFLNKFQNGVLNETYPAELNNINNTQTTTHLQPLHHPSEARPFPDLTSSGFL

Assay [2] in a line: qHTS assay for identifying genotoxic compounds that show differential cytotoxicity against isogenic chicken DT40 cell lines with known DNA damage response pathways - wild type cell line (AID 743012). Further: nearly all actives have a fitted effect of over 60% in size. Further: potency means the concentration at half of the fitted maximal effect. The essentials: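 Endpoint: CellTiter-Glo luminescence, 30 min RT. Cells: wild type DT40, 300/well. Exposure: compounds in DMSO, 40 h, 37 C/5% CO2, after ~0.5 h pre-incubation.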

The nature of assay [3]: qHTS assay for identifying genotoxic compounds that show differential cytotoxicity against isogenic chicken DT40 cell lines with known DNA damage response pathways - Rev3 mutant cell line (AID 743014). Further: nearly all actives have a fitted effect of over 55% in size. Further: potency means the concentration at half of the fitted maximal effect. From the text: National Center for Advancing Translational Sciences [NCATS]
NIH Chemical Genomics Center [NCGC]
U.S. Environmental Protection Agency [EPA]
National Institutes of Environmental Health Sciences [NIEHS]
National Toxicology Program [NTP]
U.S. Food and Drug Administration [FDA]
DNA repair pathways play a critical role in cellular homeostasis by repairing DNA damage induced by endogenous processes and xenobiotics. Isogenic chicken DT40 cell lines deficient in different DNA repair pathways can be used to identify genotoxic compounds and aid in characterizing the nature of the DNA damage induced. Two DNA repair-deficient cell lines with disrupted genes, Rad54/Ku70 or Rev3, were used to screen the Tox21 10K compound library. Possible genotoxicity was based on the presence of a significant increase in cytotoxicity in one or more of the DNA repair-deficient cell lines compared to that observed in the parental DNA repair-proficient cell line. CellTiter Glo viability assay (Promega, Madison, WI) was used to measure cell viability in these cells after compound treatment. This assay includes the data from the Rev3 mutant cell line.
Tox21 Assay Protocol Summary:
300 DT40 mutant cells in 5 uL/well were dispensed into white, solid-bottom 1536-well plates using a Multidrop Combi (ThermoFisher Scientific, Waltham, MA) dispenser. After the assay plates were incubated at 37 C/5% CO2 for approximately 0.5 hour, 23 nL of compounds dissolved in DMSO, positive controls or DMSO only was transferred into the assay plate by a pintool work station (Kalypsys, San Diego, CA). The assay plates were incubated at 37 C/5% CO2 for 40 hours. After 5 uL per well of CellTiter-Glo reagent was added into each well of the assay plates, the plates were incubated for 30 min at room temperature and the luminescence intensity of the plates was measured using a ViewLux (PerkinElmer, Shelton, CT) plate reader.

A short description of assay [4]: qHTS assay for identifying genotoxic compounds that show differential cytotoxicity against isogenic chicken DT40 cell lines with known DNA damage response pathways - Rad54/Ku70 mutant cell line (AID 743015). Further: nearly all actives have a fitted effect of over 60% in size. Further: potency means the concentration at half of the fitted maximal effect.
Assay [5] addresses Androgen receptor (Homo sapiens) (UniProt P10275). In words: qHTS assay to identify small molecule agonists of the androgen receptor (AR) signaling pathway (AID 743036; active means well fitted activation curve with a large enough effect in the signal ratio in the repeat runs, with a control signal flat, not every such curve was filed as active; the % refers to the signal ratio). Particulars: HEK293 AR-UAS-bla GripTite, beta-lactamase FRET ratio, 16 h; at 62.4 µM (top of the series).
The target is the same in assay [6]. In words: qHTS assay to identify small molecule agonists of the androgen receptor (AR) signaling pathway using the MDA cell line (AID 743040; further: nearly all actives have a fitted effect of over 20% in size). Particulars: MDA-kb2 AR-luc cells, MMTV luciferase, 16 h, stronger effect = higher value; at 70.3 µM (top of the series).
Assay [7] deals with thyroid hormone receptor (rat, GH3 cells). In words: qHTS assay to identify small molecule agonists of the thyroid receptor (TR) signaling pathway (AID 743066; calls by dose curve). Particulars: GH3.TRE-Luc cells, TR agonist luciferase, 24 h; at 83.9 µM (top of the series).
The nature of assay [8]: qHTS assay to identify small molecule antagonists of the estrogen receptor alpha (ER-alpha) signaling pathway - cell viability counter screen (AID 743074; calls by dose curve;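 further: HEK293 cells carrying ER-alpha-UAS-bla reporter stimulated with 17beta-estradiol; nearly all actives have a fitted effect of over 45% in size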). Particulars: ERalpha-bla HEK293 viability, CellTiter-Glo luminescence, 18 h; at 69.4 µM (top of the series).
The target of assay [9] is Estrogen receptor (Homo sapiens) (UniProt P03372). In words: qHTS assay to identify small molecule agonists of the estrogen receptor alpha (ER-alpha) signaling pathway (AID 743075; calls by dose curve;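 further: HEK293 GripTite cells with ER-alpha and UAS-driven beta-lactamase reporter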). Particulars: HEK293 ER-alpha-UAS-bla, beta-lactamase FRET ratio, 18 h; at 70.1 µM (top of the series).
Assay [10] in a line: qHTS assay to identify small molecule antagonists of the estrogen receptor alpha (ER-alpha) signaling pathway using the BG1 cell line - cell viability counter screen (AID 743081).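 Further: compound given together with 17beta-estradiol as the ER stimulus; nearly all actives have a fitted effect of over 45% in size.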 Further: potency means the concentration at half of the fitted maximal effect.
For a further assay, the target named is Aromatase (Homo sapiens) (UniProt P11511). In words: qHTS assay to identify aromatase inhibitors (AID 743083). Further: nearly all actives have a fitted effect of over 55% in size. Particulars: MCF-7 aro ERE, testosterone-driven ERE luciferase, 24 h; at 70.3 µM (top of the series).
Assay [11] can be described thus: qHTS assay to identify aromatase inhibitors - cell viability counter screen (AID 743084).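 Further: cells stimulated with testosterone during compound exposure; nearly all actives have a fitted effect of over 55% in size.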 Particulars: MCF-7 aro ERE viability, CellTiter-Fluor, 24 h; at 70.3 µM (top of the series).
In assay [12] the target is Aryl hydrocarbon receptor (Homo sapiens) (UniProt P35869). In words: qHTS assay to identify small molecule that activate the aryl hydrocarbon receptor (AhR) signaling pathway (AID 743085).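 Further: HG2L7.5c1 human HepG2 liver cells with stably integrated DRE-driven firefly reporter; nearly all actives have a fitted effect of over 15% in size.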 Particulars: HepG2 AhR-luc (HG2L7.5c1), luciferase, 24 h; at 70.3 µM (top of the series).
Assay [13] can be described thus: qHTS assay to identify small molecule antagonists of the androgen receptor (AR) signaling pathway - cell viability counter screen (AID 743033; further: nearly all actives have a fitted effect of over 45% in size). As to conditions: AR-bla HEK293 viability, CellTiter-Glo luminescence, 16 h; at 58.5 µM (top of the series).
Assay [14] can be described thus: qHTS assay to identify small molecule antagonists of the androgen receptor (AR) signaling pathway using the MDA cell line - cell viability counter screen (AID 743041; further: nearly all actives have a fitted effect of over 45% in size). Particulars: MDA-kb2 viability, CellTiter-Fluor, 16 h, cells co-treated with R1881 androgen agonist; at 70.3 µM (top of the series). Put shortly: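 Viability read by CellTiter-Fluor fluorescence in the same wells as the antagonist screen, added after 15.5 h of a 16 h, 37C exposure. Human breast carcinoma MDA-kb2 AR-luc cells, compounds co-dosed with agonist R1881.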

The nature of assay [15]: qHTS assay to identify small molecule antagonists of the thyroid receptor (TR) signaling pathway - cell viability counter screen (AID 743064). Further: nearly all actives have a fitted effect of over 50% in size. As to conditions: GH3.TRE-Luc viability, CellTiter-Fluor, 24 h; at 70.3 µM (top of the series). Put shortly:
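Fluorescence from CellTiter-Fluor, added after 23.5 h exposure at 37 °C, reported viability of GH3.TRE-Luc cells co-treated with compound and 1 nM T3. Measured in the same wells as the luciferase TR readout.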

Assay [16] is described as follows: qHTS assay to identify small molecule antagonists of the thyroid receptor (TR) signaling pathway (AID 743065). Further: nearly all actives have a fitted effect of over 55% in size. As to conditions: GH3.TRE-Luc, T3-stimulated luciferase inhibition, 23.5 h; at 70.3 µM (top of the series). Put shortly: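 Antagonism measured as loss of luciferase signal in GH3 cells stably carrying a TRE-luciferase reporter, co-treated with compound and T3 (1 nM final) for 23.5 h at 37 C. Viability was read in the same well by CellTiter-Fluor.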

Assay [17] is described as follows: qHTS assay to identify small molecule antagonists of the estrogen receptor alpha (ER-alpha) signaling pathway using the BG1 cell line (AID 743080; calls by dose curve;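 further: BG1 cells stimulated with 17beta-estradiol alongside compound; nearly all actives have a fitted effect of over 25% in size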). As to conditions: BG1Luc4E2 ERE-luciferase antagonist mode, luminescence; at 70.3 µM (top of the series). Put shortly: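 Seeding, 24 h rest, compound transfer from DMSO, 17beta-estradiol addition, 21.5 h incubation, CellTiter-Fluor (30 min, 37 C), then ONE-Glo (30 min, room temperature): this sequence was run on BG1-Luc-4E2 reporter cells.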

Assay [18] concerns the target Estrogen receptor (Homo sapiens) (UniProt P03372). In words: qHTS assay to identify small molecule antagonists of the estrogen receptor alpha (ER-alpha) signaling pathway (AID 743069; active means well fitted curve in the direction sought with a large enough effect in the signal ratio in the repeat runs, not every such curve was filed as active; the % refers to the signal ratio). Particulars: HEK293 ER-alpha-UAS-bla, beta-lactamase ratio, antagonist mode; at 69.4 µM (top of the series). The essentials:
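Antagonist mode: compounds in DMSO were co-added with 17beta-estradiol to ER-alpha-bla HEK293 cells (2% charcoal-stripped serum) and left 18 h at 37C. Reporter inhibition was measured as FRET fluorescence after 2 h LiveBLAzer substrate at room temperature.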

Assay [19] shares this target. In words: qHTS assay to identify small molecule agonists of the estrogen receptor alpha (ER-alpha) signaling pathway using the BG1 cell line (AID 743079). Further: nearly all actives have a fitted effect of over 20% in size. As to conditions: BG1Luc4E2 cells, ERE-luciferase agonist, 22 h; at 70.3 µM (top of the series).

Where “and” joins values, the source holds several entries; their conditions need not be identical. Identical values can stand only once. This is a selection; strong and weak results do not stand in their true shares. Records with an inconclusive call do not appear. The source holds several records for some structures; these can differ, active in one and inactive in another. Calls of active or inactive are those of the source. Unless noted, the call rests on the fitted dose curve; in most records, active means well fitted curve in the direction sought with a large enough effect in the repeat runs; inconclusive means weak or mixed curves; inactive means no such curve, though single readings can be large; an effect the other way counts as inactive or inconclusive.
On the % scale 0 is the no-effect control and ±100 the full control effect.

Regarding `CCC(=O)N(c1ccccc1)C1(COC)CCN(CCc2cccs2)CC1`, the viability change, negative = cytotoxic in assay [1] is inactive: -2.28%. Moreover, the Potency is active: 4.32 µM in [2], active: 21.7 µM in assay [3] and active: 19.3 µM in assay [4]. The activation in assay [5] is inactive: -3.38%; in assay [7] it was inactive: -7.01%; in assay [9], inactive: -1.69%. Further, in [6], the activity change is inactive: -6.85%. Also, the activity, negative = cytotoxicity in assay [8] is inactive: -29.5%. Further, the Potency result in [10] was “inactive”. The activity, negative = inhibition in the assay with Aromatase (Homo sapiens) is inactive: -1.9%. Further, the activity change, negative = cytotoxicity in [11] is inactive: -5.95%.

`CN(CCCl)CCCl`: the Potency was active: 5.96 µM and active: 3.85 µM in [3]; “inactive and active: 61 µM” in assay [10]. Also, the activation in assay [7] is inactive: -7.5%; in assay [12], inactive: 0.396% and inactive: -2.95%.

As for `O=[N+]([O-])C(Cl)(Cl)Cl`, the viability change, negative = cytotoxic in assay [1] is inactive: 4.64%; in [14], inactive: -3.27%. Also, the Potency entry in assay [2], in assay [3], in assay [4] and in assay [10] was “inactive” in each case. The values for the activity change, negative = cytotoxicity in [13] and in [11] were inactive: 5.84% and inactive: 2.72%, respectively. In addition, the activity change, negative = cytotoxic in assay [15] was inactive: 9.82%. For the same molecule, the results for the activity, negative = inhibition (in assay [16]; with Aromatase (Homo sapiens)) were inactive: 3.25% and inactive: 13%, respectively. Further, the activation in assay [7] is inactive: 0.474%; in assay [12] it was inactive: -0.289%. Further, the activity change, negative = inhibition in assay [17] was inactive: -14.8%.

For the molecule `CCC(=O)N(c1ccccc1)C1(COC)CCN(CCn2nnn(CC)c2=O)CC1`, the viability change, negative = cytotoxic in assay [1] was inactive: -8.95%; in assay [14], inactive: 0.0469%. Moreover, the Potency entry in [3], in assay [4] and in assay [10] was “inactive” each time. Besides, in assay [13], the activity change, negative = cytotoxicity was inactive: 0.951%. In addition, the activity, negative = inhibition in assay [16] is inactive: -7.37%; with Aromatase (Homo sapiens), inactive: 6.68%. In addition, the values for the activation in assay [7] and in assay [12] were inactive: -1.31% and inactive: 0.214%, respectively. In assay [8], the activity, negative = cytotoxicity is inactive: -16%. In addition, in assay [17], the activity change, negative = inhibition is inactive: -5.63%.

With `CCC(=O)N(c1ccccc1)C1CCN(CCc2ccccc2)CC1`, the viability change, negative = cytotoxic was inactive: -0.882% in assay [1] and inactive: 0.62% in assay [14]. Further, the Potency was active: 13.3 µM in assay [2] and active: 26.6 µM in assay [4]. The activity change, negative = cytotoxicity was inactive: 1.46% in assay [13] and inactive: -0.0263% in assay [11]. Also, the results for the activity, negative = inhibition (in assay [18]; with Aromatase (Homo sapiens)) were inactive: 3.18% and inactive: 8.74%, respectively. Also, the activity, negative = cytotoxicity in [8] is inactive: -8.95%. The activation is inactive: -1.8% in assay [9], inactive: 16.4% in [19] and inactive: 4.01% in assay [12]. The activity change, negative = inhibition in assay [17] was inactive: 1.11%. For the same molecule, the Potency result in assay [10] was “inactive”.
